Drawing on ChEMBL document CHEMBL4184320, “Optimization of Selective Mitogen-Activated Protein Kinase Interacting Kinases 1 and 2 Inhibitors for the Treatment of Blast Crisis Leukemia” (J Med Chem, 2018), this text covers IC50 for one compound.

The chains behind the UniProt entries cited, without tags or fusion partners. Where a name states a change or a piece, a line headed by the entry shows the natural chain unless it says otherwise.
UniProt Q9BUB5: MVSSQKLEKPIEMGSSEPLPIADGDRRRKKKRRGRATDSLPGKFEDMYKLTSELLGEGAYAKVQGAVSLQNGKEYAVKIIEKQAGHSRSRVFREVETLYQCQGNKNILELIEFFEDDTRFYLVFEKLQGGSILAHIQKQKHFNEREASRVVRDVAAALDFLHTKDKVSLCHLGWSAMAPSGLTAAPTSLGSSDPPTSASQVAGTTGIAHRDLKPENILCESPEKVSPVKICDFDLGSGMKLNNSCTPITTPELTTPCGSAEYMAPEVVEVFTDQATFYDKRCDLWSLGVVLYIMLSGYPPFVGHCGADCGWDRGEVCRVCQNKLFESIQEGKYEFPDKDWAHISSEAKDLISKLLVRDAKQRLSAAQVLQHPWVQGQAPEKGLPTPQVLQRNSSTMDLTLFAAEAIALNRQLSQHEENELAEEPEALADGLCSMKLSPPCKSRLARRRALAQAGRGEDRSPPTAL
UniProt Q9HBH9: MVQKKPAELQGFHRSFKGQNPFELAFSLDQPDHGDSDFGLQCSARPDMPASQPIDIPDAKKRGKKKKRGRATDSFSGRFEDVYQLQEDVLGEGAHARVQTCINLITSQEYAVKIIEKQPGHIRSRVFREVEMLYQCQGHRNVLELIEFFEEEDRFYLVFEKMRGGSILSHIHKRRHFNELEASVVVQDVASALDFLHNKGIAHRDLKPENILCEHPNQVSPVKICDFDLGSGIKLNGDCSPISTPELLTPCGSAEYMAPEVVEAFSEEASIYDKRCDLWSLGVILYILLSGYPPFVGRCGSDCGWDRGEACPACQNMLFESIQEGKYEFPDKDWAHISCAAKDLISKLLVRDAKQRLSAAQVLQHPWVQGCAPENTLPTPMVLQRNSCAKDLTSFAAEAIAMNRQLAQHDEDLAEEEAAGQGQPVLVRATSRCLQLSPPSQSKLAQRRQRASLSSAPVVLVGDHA

Molecules are shown by their SMILES.

For assay [1], the target named is MAP kinase-interacting serine/threonine-protein kinase 1 (Homo sapiens, UniProt Q9BUB5).
The target in assay [2] is MAP kinase-interacting serine/threonine-protein kinase 2 (Homo sapiens, UniProt Q9HBH9).

For the compound `CN1CCN(C(=O)c2ccc(-c3cn4c(-c5ccc(C#N)cc5)cnc4cn3)cc2)CC1`, the figures for the 50% inhibitory concentration (IC50) in assay [1] and in assay [2] were 499 nM and 502 nM, respectively.
